Patent US5427922A (Takeda Chemical Industries, Ltd., priority 1992, dated 1995)

The chains behind the UniProt entries cited, without tags or fusion partners.
UniProt P30556, whole entry Q187R/F204S/L205C/K232N/K240R/L268Q/C289W/R311K/Y312D/F313I: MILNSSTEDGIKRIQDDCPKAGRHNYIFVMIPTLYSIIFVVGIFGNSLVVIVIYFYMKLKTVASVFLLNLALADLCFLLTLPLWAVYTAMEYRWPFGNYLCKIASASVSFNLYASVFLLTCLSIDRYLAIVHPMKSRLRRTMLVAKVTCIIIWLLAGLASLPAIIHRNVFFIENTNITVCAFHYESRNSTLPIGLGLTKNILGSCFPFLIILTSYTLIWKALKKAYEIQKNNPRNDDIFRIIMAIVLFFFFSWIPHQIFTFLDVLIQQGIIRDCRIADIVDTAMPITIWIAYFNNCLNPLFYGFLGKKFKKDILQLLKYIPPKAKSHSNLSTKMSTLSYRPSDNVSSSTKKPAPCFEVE

Molecular target: Ang II type 1 receptor from human placenta (Homo sapiens, UniProt P30556)
Assay: Radio-labeled Ang II binding activity in animal cells (COS7/pHARp306) expressing full-length Ang II type 1 receptor gene from human placenta
Settings: 10 μM agonist or antagonist added; 100 pM [125I]-Ang II; room temperature, 60 minutes; control (none) 84,148 cpm

CCCCc1nc(Cl)c(CO)n1Cc1ccc(-c2ccccc2-c2nn[nH]n2)cc1 [DuP753]
Radioactivity (bound [125I]-labeled Ang II): 1,246 cpm
